scFv variants of Ab-14 (heavy chain) against a SARS-CoV-2 spike peptide

Target: peptide PDVDLGDISGINAS, taken from heptad repeat 2 (HR2) of SARS-CoV-2 spike.

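This is the validation round: designs drawn from the data on random variants, tested in the same kind of assay. Several design methods are mixed in this list. The scFvs were displayed on barcoded MATa yeast, the peptide on MATalpha yeast. Binding brings cells together so that they mate, and sequencing counts the barcode pairs among the diploids. Each replicate has its own calibration line, from reference interactions of the BCL2 family. Each pool was mated in six replicate cultures.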

The variants keep the light chain, the linker and the frameworks of Ab-14 (scFv order VH, a 15-residue (Gly4Ser)3 linker, VL).
VH: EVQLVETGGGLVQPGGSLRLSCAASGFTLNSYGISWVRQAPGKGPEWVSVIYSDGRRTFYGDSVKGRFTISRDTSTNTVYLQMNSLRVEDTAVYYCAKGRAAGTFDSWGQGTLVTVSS
VL: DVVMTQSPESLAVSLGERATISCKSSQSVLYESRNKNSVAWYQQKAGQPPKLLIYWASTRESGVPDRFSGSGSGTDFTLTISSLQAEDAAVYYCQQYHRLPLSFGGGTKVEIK

Variants are written as CDR1, CDR2 and CDR3 of the heavy chain (limits as in the source). Parent: GFTLNSYGIS, VIYSDGRRTFYGDSVK, GRAAGTFDS.
Kd is apparent (estimated from mating counts) and averaged on the log scale over replicates with a signal. Smaller is tighter.
Where no diploid with the target was found in any replicate, the entry reads "nd": below detection, most likely a poor binder, though not proof of it.
Entries are sorted by rising average, undetected variants last.
Values of this round are not directly comparable with the first-round values of the same sequences.
Three control strains display no target. For all heavy chain designs, 1% of the pairings with them gave a signal, with a median of 120 nM and one signal in twenty below 7.0 nM, so weak values seen in few replicates may be background.
The authors averaged sequences with at least three values out of six and counted those with two or fewer as poor binders.

| CDR-H1 | CDR-H2 | CDR-H3 | apparent Kd | detected |
|---|---|---|---|---|
| GFDLNEYGIS | VIYADGQRTFYIDSVK | GEIAGTFNV | 120 pM | 5/6 |
| GFDLDEYGIS | VIYADGKRTAYADDVK | GEVAGTFDT | 160 pM | 6/6 |
| GFDLNEYGIS | VIYADGRRTFYTDSVK | GGNAGTFDV | 190 pM | 6/6 |
| GFDLNEYGIS | VIYADGMRTYYADSVK | GNNAGTFDV | 260 pM | 6/6 |
| GFDLNEYGIS | VIYADGMRTSYADSVK | GQLAGTFDQ | 300 pM | 6/6 |
| GKTLNSYGIS | VIYSDGRRTFYSDSVK | GKEAGTFDT | 330 pM | 6/6 |
| GFDLNEYGIS | VIYADGQRTAYADNVK | GEVAGTFDV | 330 pM | 6/6 |
| GFSLNEYGIS | VIYSDGRRTFYKDSVK | GRNAGTFDS | 340 pM | 6/6 |
| GFDLNEYGIS | VIYADGRRTFYIDSVK | GTNAGTFDK | 340 pM | 6/6 |
| GFDLNEYGIS | VIYADGKRTFYSDSVK | GNNGGTFDV | 360 pM | 6/6 |
| GFDLDEYGIS | VIYADGVRTAYADSVK | GNNAGTFDV | 390 pM | 6/6 |
| GFDLDEYGIS | VIYADGQRTAYADSVK | GETAGTFDV | 500 pM | 6/6 |
| GFDLNEYGIS | VIYADGLRTFYADSVK | GEFAGTFDV | 630 pM | 6/6 |
| GFNLEDYGIS | VIYADGMRTFYADSVK | GKVAGTFDV | 750 pM | 6/6 |
| GFSLNEYGIS | VIYSDGKRTFYGDSVK | GREAGTFDS | 770 pM | 6/6 |
| GFDLNEYGIS | VIYADGRRTFYSDKVK | GNNGGTFDI | 930 pM | 6/6 |
| GFTLNEYGIS | VIYSDGRRTFYTDSVK | GSAAGTFDL | 1.2 nM | 6/6 |
| GFDLNEYGIS | VIYADGRRTFYADSVK | GHVAGTFVS | 1.4 nM | 6/6 |
| GFTLESYGIS | VIYADGRRTFYGDAVK | GRTAGTFDS | 1.6 nM | 6/6 |
| GFTLNSYGIS | VIYSDGRRTFYADSVK | GKAAGTFDS | 2.9 nM | 6/6 |
| GFSLNSYGIS | VIYADGRRTFYGDSVK | GKAAGTFDR | 4.3 nM | 6/6 |
| GFTLNSYGIS | VIYSDGRRTFYGDSVK | GTAAGSFDS | 4.4 nM | 6/6 |
| GFWLNDYGIS | VIYSDGRRTFYADSVK | GRAAGTFDA | 4.7 nM | 5/6 |
| MFNLNSYGIS | VIYSDGRRTFYGDSVK | GQIAGTFDS | 14 nM | 6/6 |
| GFTLNSYGIS | VIYFDGRRTAYGDSVK | GQAAGTFDS | 18 nM | 2/6 |
| GFTLNSYGIS | VIYSDGRRTFYGDSVK | GRVGGTFDS | 19 nM | 5/6 |
| GFTLNSYGIS | VIYSDGRRTFYGDSVK | GRAAGTFDV | 41 nM | 4/6 |
| GFGLNSYGIS | VIYSDGRRTFYGDSVK | GRAAGTFDS | 44 nM | 6/6 |
| GFTLNDYGIS | VIYSDGRRTFYGDSVK | GRQAVTFDQ | 140 nM | 1/6 |
| GFSFNEYGIS | VIYADGKRQAYANKVK | GGKDAAFDI | 190 nM | 1/6 |
| GFDLNSYGIS | VIYSDGRRTFYGDSVK | GRAAGHFDS | nd | 0/6 |
| GFSLDEYGVS | VIYADGVRQSYCDDVK | GGIAGTFLY | nd | 0/6 |
| GETLNSYGIS | VIYSDGRRTFYGDSVK | DRAAGTFDS | nd | 0/6 |
| GFTLNKYGIS | VIYSDGRRTFYSDSVK | GREAGTFFS | nd | 0/6 |
| GFTLNSYGIS | VIYSDGKRTFYGDSVK | GRAAGTFRS | nd | 0/6 |
| GFTINTYGIS | VIYSDGRRTFYKDSVK | GYARGTFDS | nd | 0/6 |
| GDQLDEYGIS | VIYADGMRTAYADSFK | GNKSVNIGI | nd | 0/6 |
| GFDLNEYGIS | VIYADGTRTYYANSFK | GDYVVVNSI | nd | 0/6 |
| GFSLNSYGIS | VIYKDGRRTFYGDSVK | GRDAGTFDS | nd | 0/6 |
| GFTLDSYGIS | VIYSDGRRTIYGDSVK | GTAAGTFDS | nd | 0/6 |
| KFTLNDYGIS | VIYSDGRRTFYGDSVK | GRAALTFIQ | nd | 0/6 |
| QFTLNSYGIS | VIYSDGRRTFYGDSVK | GRAAGTFDS | nd | 0/6 |
| GFDLNSYGIS | VIYSDGSRTFYGDSVK | GRAAGWFNS | nd | 0/6 |
| GFNLDEYGIS | VIYADGMRTAFGDNVK | GTNFGDFVF | nd | 0/6 |
| GFKLNSYGIH | VIYSDGRRTFYGDSVK | GRAAGTFDL | nd | 0/6 |

Values reported by Li et al. 2023, doi:10.1038/s41467-023-39022-2 (FLAb copy).